Source: PMC11291268

B1: Gαo-GFP wild-type [human] / His6-RGS19 [not stated] (parent)
chain 1: MGCTLSAEERAALERSKAIEKNLKEDGISAAKDVKLLLLGAGESGKSTIVKQMKIIHEDGFSGEDVKQYKPVVYSNTIQSLAAIVRAMDTLGIEYGDKERKADAKMVCDVVSRMEDTEPFSAELLSAMMRLWGDSGIQECFNRSREYQLNDSAKYYLDSLDRIGAADYQPTEQDILRTRVKTTGIVETHFTFKNLHFRLFDVGGQRSERKKWIHCFEDVTAIIFCVALSGYDQVLHEDETTNRMHESLMLFDSICNNKFFIDTSIILFLNKKDLFGEKIKKSPLTICFPEYTGPNTYEDAAAYIQAQFESKNRSPNKEIYCHMTCATDTNNIQVVFDAVTDIIIANNLRGCGLY
chain 2: MPTPHEAEKQITGPEEADRPPSMSSHDTASPAAPSRNPCCLCWCCCCSCSWNQERRRAWQASRESKLQPLPSCEVCATPSPEEVQSWAQSFDKLMHSPAGRSVFRAFLRTEYSEENMLFWLACEELKAEANQHVVDEKARLIYEDYVSILSPKEVSLDSRVREGINKKMQEPSAHTFDDAQLQIYTLMHRDSYPRFLSSPTYRALLLQGPSQSSSEA

Variants of: B1
Assay: co-IP (anti-GFP nanobody) with Western blot quantification
Conditions: N2a cells, n = 3, parent: 1, read off a plot
Variant chain 1 A227V has a ratio to parent (folds over Gαo wild-type) of 0.06.
chain 1 C215Y showed a ratio to parent (folds over Gαo wild-type) of 0.08.
For chain 1 D174G, the ratio to parent (folds over Gαo wild-type) was 0.04.
For chain 1 E237K, the ratio to parent (folds over Gαo wild-type) was 0.2.
With chain 1 E246K the ratio to parent (folds over Gαo wild-type) was 0.02.
Work on chain 1 F275S yielded a ratio to parent (folds over Gαo wild-type) of 0.07.
chain 1 G40R showed a ratio to parent (folds over Gαo wild-type) of 0.01.
chain 1 G45E gave a ratio to parent (folds over Gαo wild-type) of 0.01.
Work on chain 1 G203R yielded a ratio to parent (folds over Gαo wild-type) of 0.04.
chain 1 I279N gave a ratio to parent (folds over Gαo wild-type) of 0.18.
In the case of chain 1 L199P, the ratio to parent (folds over Gαo wild-type) is reported as 0.05.
chain 1 N270H showed a ratio to parent (folds over Gαo wild-type) of 0.04.
Work on chain 1 Q233P yielded a ratio to parent (folds over Gαo wild-type) of 0.03.
In the case of chain 1 R209C, the ratio to parent (folds over Gαo wild-type) is reported as 0.03.
In the case of chain 1 S47G, the ratio to parent (folds over Gαo wild-type) is reported as 0.03.
chain 1 Y231C showed a ratio to parent (folds over Gαo wild-type) of 0.07.
